Test results reported in patent publication US20200148803A1, “POLYMERIZABLE MULTIFUNCTIONAL ANTIMICROBIAL QUATERNARY AMMONIUM MONOMERS, METHODS OF SYNTHESIS, AND USES THEREOF” (ADA Foundation, priority 2018, published 2020).

Experiments:
[1] = Degree of vinyl conversion (DVC) by near infra-red spectra of copolymer beams; format: physicochemical; details: 10 mass percent in UPE resin
Description: Experimental resin (UPE) was formulated from the commercially available monomers urethane dimethacrylate (UDMA, 50.91% w/w), polyethylene glycol extended urethane dimethacrylate (PEG-U, 18.18% w/w), and ethyl 2-(hydroxymethyl)acrylate (EHMA, 30.91% w/w). A conventional visible light initiator system comprised of camphorquinone (0.2% w/w) and ethyl-4-N,N-dimethylamino benzoate (4EDMAB, 0.8% w/w) was utilized. […] Copolymer specimens (beams) were prepared by depositing UPE (UPE resin control) and AM-UPE resins into glass molds (2 mm×2 mm×25 mm) and photopolymerizing them with a dental curing light (Triad 2000, Dentsply, Charlotte, N.C., USA) for 2 minutes from two sides. […] Degree of vinyl conversion (DVC) of UPE and AM-UPE resins was determined utilizing beam samples by collecting the near infra-red (NIR) spectra (Nexus 670, ThermoFisher, Madison, Wis., USA) before and 24 h after polymerization and calculating the reduction in absorption band at 6165 cm^−1 corresponding to the vinyl (C═C—H) overtone signal. […] The DVC was calculated as: […]
where Area(polymer) and Area(monomer) correspond to the areas under 6165 cm^−1 peaks after and before the polymerization, respectively. After DVC analysis, flexural strength (FS) and elastic modulus (E) of beam specimen were determined employing the Universal Testing Machine (Instron 5500R, Instron Corp., Canton, Mass., USA). […]

[2] = Sessile drop water contact angle (CA) on resin pellets; format: physicochemical
Description: Experimental resin (UPE) was formulated from the commercially available monomers urethane dimethacrylate (UDMA, 50.91% w/w), polyethylene glycol extended urethane dimethacrylate (PEG-U, 18.18% w/w), and ethyl 2-(hydroxymethyl)acrylate (EHMA, 30.91% w/w). A conventional visible light initiator system comprised of camphorquinone (0.2% w/w) and ethyl-4-N,N-dimethylamino benzoate (4EDMAB, 0.8% w/w) was utilized. […] Copolymer specimens (beams) were prepared by depositing UPE (UPE resin control) and AM-UPE resins into glass molds (2 mm×2 mm×25 mm) and photopolymerizing them with a dental curing light (Triad 2000, Dentsply, Charlotte, N.C., USA) for 2 minutes from two sides. Copolymer specimens (pellets) were prepared by depositing UPE and AM-UPE resins into a stainless-steel mold (1 mm×16 mm), sandwiched between two sheets of Mylar film and two glass slides and photopolymerized in the same manner as the beam samples. Degree of vinyl conversion (DVC) of UPE and AM-UPE resins was determined utilizing beam samples by collecting the near infra-red (NIR) spectra (Nexus 670, ThermoFisher, Madison, Wis., USA) before and 24 h after polymerization and calculating the reduction in absorption band at 6165 cm^−1 corresponding to the vinyl (C═C—H) overtone signal. […] The DVC was calculated as: […]
where Area(polymer) and Area(monomer) correspond to the areas under 6165 cm^−1 peaks after and before the polymerization, respectively. After DVC analysis, flexural strength (FS) and elastic modulus (E) of beam specimen were determined employing the Universal Testing Machine (Instron 5500R, Instron Corp., Canton, Mass., USA). […] The FS and E of the specimens (three replicates/experimental group) was calculated as instructed in the ISO4049:2009 document. Changes in hydrophilicity/hydrophobicity of UPE resins due to the introduction of AM monomers were assessed on pellet specimen by sessile drop contact angle (CA) measurements (drop shape analyzer DSA100, Krüss GmbH, Hamburg, Germany). […] The CA water values were calculated employing the Krüss Advance software. […]

Q: With “2-(methacryloyloxy)-N,N,N-trimethylethan-1-aminium dodecyl sulfate [AMmis1]” as the substance, how does the “DVC compared to UPE resin control” value [1] read?
A: Its value is “maintained the DVC of copolymer at the same level as the UPE resin control”.

Q: What about the “surface properties of copolymer pellet” value ([2]; 10 mass percent in UPE resin) of the same substance?
A: Its value is “amphiphilic surface properties”.

Q: What about the “CA, more hydrophilic side of the copolymer pellet” value ([2]; UPE with AMmis1 at 10 mass percent) of the same substance?
A: The value was 37.1±11.4 °.

Q: And the “CA, other side of the copolymer pellet” value ([2]; UPE with AMmis1 at 10 mass percent, side retaining hydrophobic-hydrophilic balance)?
A: The value was 64.8±2.4 °.
